The source of these data is patent US9039924B2 (priority 2010, dated 2015).

The nature of data set [1]: Reference test: ammonium nitrate mixed with water in a 100 ml container placed in a 360 ml container of water. The conditions noted are these: around 60 grams of 200 mesh ammonium nitrate in 50 grams water; after around 30 seconds; initial 25° C.

Only a part of the results on these compounds is given; other tests are left out.

Take ammonium nitrate: the “Heat Absorbed (during dissolution of compound in 100 gm of water at 25° C. in kJ)” value (saturated solution in 100 gm of water at 25° C.) worked out at 48.13 kJ. Moreover, for the setting “saturated solution, no heat loss”, the “Theoretical Change in Temperature of a saturated solution (° C.)” value came out at 46 °C. Also, the “temperature of the saturated solution in the 100 ml container” value in data set [1] is −7 °C.
